From the kinase profiling compilation of Christmann-Franck et al. (2016)

Sequences of proteins named here, by UniProt entry; tags and fusion partners are left off. A change or cut given only in a name is not applied to a line headed by its entry.
UniProt Q9UPE1, whole entry, looked up: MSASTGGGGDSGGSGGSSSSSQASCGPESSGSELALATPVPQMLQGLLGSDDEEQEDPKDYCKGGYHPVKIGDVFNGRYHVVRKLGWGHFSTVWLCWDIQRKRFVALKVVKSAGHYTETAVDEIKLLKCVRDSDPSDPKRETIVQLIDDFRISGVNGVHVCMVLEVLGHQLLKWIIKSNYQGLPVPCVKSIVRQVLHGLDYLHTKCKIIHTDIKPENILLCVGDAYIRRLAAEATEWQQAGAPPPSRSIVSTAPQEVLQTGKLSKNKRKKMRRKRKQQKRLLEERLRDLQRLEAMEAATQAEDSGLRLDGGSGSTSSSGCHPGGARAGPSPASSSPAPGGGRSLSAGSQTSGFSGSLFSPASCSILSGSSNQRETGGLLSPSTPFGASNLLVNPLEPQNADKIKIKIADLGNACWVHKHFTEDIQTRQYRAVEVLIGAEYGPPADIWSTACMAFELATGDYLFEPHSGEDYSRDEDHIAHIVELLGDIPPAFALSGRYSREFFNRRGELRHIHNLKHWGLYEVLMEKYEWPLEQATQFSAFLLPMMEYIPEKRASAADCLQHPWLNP
UniProt P31751: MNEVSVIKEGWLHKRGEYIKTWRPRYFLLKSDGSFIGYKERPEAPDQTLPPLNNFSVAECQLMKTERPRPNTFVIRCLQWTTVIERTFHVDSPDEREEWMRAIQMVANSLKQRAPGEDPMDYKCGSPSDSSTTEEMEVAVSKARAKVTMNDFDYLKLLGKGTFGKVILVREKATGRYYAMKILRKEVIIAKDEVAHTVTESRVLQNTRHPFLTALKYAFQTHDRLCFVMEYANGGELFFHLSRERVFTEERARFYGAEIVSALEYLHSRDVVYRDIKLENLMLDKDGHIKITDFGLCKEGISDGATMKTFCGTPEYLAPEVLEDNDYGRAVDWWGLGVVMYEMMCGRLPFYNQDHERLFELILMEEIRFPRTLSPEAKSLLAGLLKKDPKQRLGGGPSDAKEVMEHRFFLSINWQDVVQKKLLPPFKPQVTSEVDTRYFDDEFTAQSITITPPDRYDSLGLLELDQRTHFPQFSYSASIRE
UniProt P30530, whole entry, looked up: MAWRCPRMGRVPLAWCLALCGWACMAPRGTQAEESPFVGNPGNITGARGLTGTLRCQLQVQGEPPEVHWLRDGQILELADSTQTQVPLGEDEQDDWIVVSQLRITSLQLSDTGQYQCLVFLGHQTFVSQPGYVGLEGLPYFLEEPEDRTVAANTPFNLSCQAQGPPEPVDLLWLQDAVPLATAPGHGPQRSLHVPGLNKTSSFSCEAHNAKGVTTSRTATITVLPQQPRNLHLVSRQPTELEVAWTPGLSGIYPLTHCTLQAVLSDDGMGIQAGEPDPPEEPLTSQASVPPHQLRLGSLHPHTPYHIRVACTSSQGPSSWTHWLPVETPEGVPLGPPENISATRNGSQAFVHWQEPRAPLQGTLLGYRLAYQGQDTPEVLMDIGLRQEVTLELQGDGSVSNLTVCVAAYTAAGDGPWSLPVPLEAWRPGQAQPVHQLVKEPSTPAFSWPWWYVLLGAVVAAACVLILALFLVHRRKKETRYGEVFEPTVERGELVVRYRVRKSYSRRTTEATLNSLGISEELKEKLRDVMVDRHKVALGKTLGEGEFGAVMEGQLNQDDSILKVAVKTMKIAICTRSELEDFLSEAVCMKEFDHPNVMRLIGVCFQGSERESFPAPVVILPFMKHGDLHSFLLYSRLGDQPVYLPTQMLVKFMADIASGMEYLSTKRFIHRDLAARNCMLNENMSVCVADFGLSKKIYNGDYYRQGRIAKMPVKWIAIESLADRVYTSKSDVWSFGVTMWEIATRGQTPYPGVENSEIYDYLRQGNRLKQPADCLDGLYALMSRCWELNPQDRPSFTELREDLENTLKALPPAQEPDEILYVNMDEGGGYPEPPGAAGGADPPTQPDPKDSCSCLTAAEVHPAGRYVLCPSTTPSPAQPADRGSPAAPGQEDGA

Columns and labels:
Assay in all cases: radiometric filter-binding kinase assay, Kinase HotSpot
Conditions in all cases: compound 0.5 µM; ATP 10 µM
SRPK3 (human) = SRPK3 (human) (UniProt Q9UPE1)
AKT2 (human) = AKT2 (human) (UniProt P31751)
AXL (human) = AXL (human) (UniProt P30530)

CC[n+]1c(/C=C/N(C)c2ccccc2)n(-c2ccccc2)c2ccc(-c3nc4ccccc4s3)cc21
residual activity (SRPK3 (human)): 107%

CC#CC(=O)Nc1cc2c(Nc3ccc(F)c(Cl)c3)ncnc2cn1
residual activity (AKT2 (human)): 103%

Cc1ccc(S(=O)(=O)/C=C/C#N)cc1
residual activity (AXL (human)): 107%
